# Hits are enriched below; roughly 2.3% of the tested compounds scored in any of these assays.
# GRP78 ERSR act = ER stress response induction in glioma; U87-MG GRP78 promoter luciferase reporter, 16 h; AID 602332; Potency, µM, for inactives: top-dose activation, hits mostly activators; 420,000 tested, 0.02% active; further: potency means the concentration at half of the fitted maximal effect; series mostly up to about 76 µM; % of control where 0% means no effect; nearly all actives have a fitted effect of over 35% in size
#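 Stably transfected U87-MG human glioma cells carrying a GRP78-based luminescent sensor were seeded at 1000 cells/well, pin-dosed with compounds and incubated 16 h. Luciferase reagent was then added, and end-point luminescence was read after 10 min at room temperature.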
# Mito fusion yeast = inhibitors of mitochondrial division or activators of mitochondrial fusion. S. cerevisiae fusion-defective mutant growth rescue, CellTiterGlo 48 h. Potency, µM (titrated, usually from 46.1 µM), without a hit: at the top dose growth rescue (activation), actives largely listed as activators. 320,000 tested, 0.23% active; further: potency means the concentration at half of the fitted maximal effect; % of control where 0% means no effect; nearly all actives have a fitted effect of over 45% in size
#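 Compounds are tested for their ability to restore growth of mitochondrial fusion-defective yeast strains at non-permissive 37C in YPEG medium over 48 hours. Viability is quantified by luciferase luminescence.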
# Nrf2 ARE act = activators of Nrf2 (ARE) signaling; AREc32 ARE-luciferase reporter (MCF7-derived line), luminescence, 24 h; 410,000 tested, 0.31% active; Potency, µM (doses to about 46.1 µM), without a hit: at the highest dose activation, actives largely listed as activators; further: potency means the concentration at half of the fitted maximal effect; % of control where 0% means no effect; nearly all actives have a fitted effect of over 65% in size
#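 Cells of the AREc32 ARE-luciferase line are plated in OPTI-MEM containing 5% FBS and left overnight at 37 deg C. Compounds are pinned in, incubation continues 24 hr, and firefly luciferase signal is then measured.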
# A549 viability = kills or reduces viability of A549 cells in Nrf2 counter-screen; A549 ARE-Fluc cells, CellTiter-Fluor viability, 18-24 h; Potency, µM (highest dose often 46 µM), for the others: at the top dose activity change, negative = cytotoxicity, hits mostly inhibitors; AID 504648; 390,000 tested, 0.16% active; further: potency means the concentration at half of the fitted maximal effect; on the % scale 0 is the no-effect control and ±100 the full control effect
#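 A549 ARE_Fluc cells in 5% FBS OPTI-MEM were exposed to compounds in concentration-response for 18-24 h at 37 deg C. Viability was read by CellTiter-Fluor fluorescence (Ex 405/Em 525) after 30 min, before the luciferase read.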
# miR-21 reporter = miR-21 reporter, rising signal; HeLa miR-21 FLuc reporter, luciferase, 48 h; Potency, µM (top dose mostly 38.3 µM), without a hit: at the top dose reporter change, positive = more light; 340,000 tested, under 10 active; active = well fitted rising curve with a large enough effect; inconclusive = small, poorly fitted or top-dose-only effect; inactive = no such curve, though single readings can be large or run the other way;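 note: % of control where 0% means no effect; miR-21 action dims this reporter so a rising signal means less miR-21 action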
#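 HeLa miR-21-FLuc reporter line, endogenous miR-21; 2000 cells/well in DMEM/10% FBS; compound titration up to ~40uM final, 48 h, 37 degree Celsius; luciferase detection reagent, 15 min lysis, CCD luminescence.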
# Nrf2 block = blocks Nrf2 signaling; A549 ARE-Fluc reporter, luciferase luminescence, 18-24 h; Potency, µM (highest dose often 46 µM), for inactives: top-dose activity change, negative = inhibition, actives largely listed as inhibitors; 360,000 tested, 2.1% active; AID 504444; further: potency means the concentration at half of the fitted maximal effect; on the % scale 0 is the no-effect control and ±100 the full control effect; nearly all actives have a fitted effect of over 60% in size
#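 Two sequential reads on A549 ARE_Fluc cells exposed to compound for 18-24 h: a CellTiter-Fluor fluorescence read for viability, then a luciferase luminescence read for Nrf2/ARE activity.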
# Numbers without * were called inactive; u = inconclusive; x = not tested or not shown; ! = repeats disagree; [ ] = dose if it differs, or a comment. Unless noted, the call rests on the fitted dose curve; in most records, active means well fitted curve in the direction sought with a large enough effect; inconclusive means small, poorly fitted or top-dose-only effect, or another doubt; inactive means no such curve, though single readings can be large; an effect the other way counts as inactive or inconclusive.
no. | SMILES | GRP78 ERSR act | Mito fusion yeast | Nrf2 ARE act
1 | O=C1Nc2ccc(Br)cc2C1Cc1ccccc1F (configuration not stated) | -0.7% | -2.5% | 12.2%
2 | CCc1ccc(C(=O)COC(=O)C(Cc2ccccc2)NC(=O)C2CCC(C)CC2)cc1 (configuration not stated) | -4.3% | -0.7% | -0.5%
3 | CCC(C)C(NC(=O)C1CCC(C)CC1)C(=O)NCc1ccco1 (configuration not stated) | -2.6% | 35.5µM* | 1.8%
4 | CC1CCC(C(=O)NC(C(=O)OCC(=O)c2ccccc2)C(C)C)CC1 (configuration not stated) | -1.0% | x | -1.2%
5 | CCCS(=O)(=O)c1ncc(Cl)c(C(=O)Nc2sc3c(c2C(=O)NCC)CCCC3)n1 | -5.3% | x | x
6 | COc1ccc(N2CCN(C(=O)c3ccc(Br)cc3)CC2)c([N+](=O)[O-])c1 | -7.7% | -1.1% | -0.1%
7 | Cc1ccc(CCNc2ccccc2)c[n+]1[O-] | 2.0% | -3.7% | 0.2%
8 | CN1CCN(c2ncc3nc(-c4ccc(F)cc4)c(=O)n(C4CC4)c3n2)CC1 | 0.1% | x | x
9 | NS(=O)(=O)c1ccc(CCNC(=O)CN2CCCCC2)cc1 | -0.4% | 1.4% | -0.1%
10 | CC1CCN(C(=O)CSc2nnc(CNC(=O)c3ccco3)o2)CC1 | -3.8% | -0.9% | -0.7%

no. | A549 viability | miR-21 reporter | Nrf2 block
1 | -2.8% | -2.2% | -19.6%
2 | -14.9% | -4.1% | u
3 | 25.6% | 0.9% | 7.5%
4 | -12.0% | 2.5% | 16.4µM*
5 | x | x | x
6 | -2.9% | 0.2% | -27.3%
7 | 5.2% | -20.1% | 1.1%
8 | x | x | x
9 | -2.4% | -0.2% | 9.3%
10 | -4.5% | -6.7% | -10.6%

# Next part:
no. | SMILES | GRP78 ERSR act | Mito fusion yeast | Nrf2 ARE act
11 | CCCOC(=O)c1c(NC(=O)C(C)Sc2nc(-c3ccccc3)cc(C(F)(F)F)n2)sc(C(=O)N(C)C)c1C (configuration not stated) | -1.8% | x | 3.4%
12 | O=C(c1nn(Cc2ccccc2)c(=O)c2ccccc12)N1CCc2ccccc2C1 | -4.1% | 2.4% | 0.3%
13 | CC1=NN(C(N)=S)C(=O)C1N=Nc1c(C)n(C)n(-c2ccccc2)c1=O (configuration not stated) | -3.0% | x | -0.6%
14 | COc1cc(-c2nn3c(-c4cc(-c5ccccc5)n[nH]4)nnc3s2)cc(OC)c1OC | 0.2% | x | x
15 | CCn1c(=O)c(C(=O)Nc2ccccc2)c(O)c2ccccc21 | 1.4% | -2.2% | 12.8%
16 | CCn1c(=O)c(C(=O)Nc2nc3ccccc3[nH]2)c(O)c2ccccc21 | u | 0.2% | 7.9%
17 | NC(N)=NC(N)=NCCc1ccccc1 | -2.3% | -2.6% | 1.7%
18 | CCN(C[C@H]1N[C@@](Cc2ccccc2)(C(=O)OC)[C@H]2C(=O)N(Cc3ccccc3)C(=O)[C@@H]12)C(=O)C1CCCCC1 | 0.8% | x | 0.3%
19 | COC(=O)N[C@H](c1ccccc1)[C@@]1(C)C[C@@H]1[C@@H](C)C(=O)Nc1ccc2ccccc2c1 | -3.6% | x | 0.2%
20 | O=C(CCc1ccccc1)NC(NC(=S)Nc1ccc(Br)cc1)C(Cl)(Cl)Cl (configuration not stated) | 7.0% | 1.2% | 7.6%

no. | A549 viability | miR-21 reporter | Nrf2 block
11 | -21.7% | 29.3% | 20.6µM*
12 | u | -2.0% | 23.1µM*
13 | -16.9% | x | 5.0%
14 | u | x | 20.6µM*
15 | 13.0% | -12.6% | 22.2%
16 | 20.6µM* | -0.2% | 16.4µM*
17 | -5.8% | -18.6% | 13µM*
18 | u | x | 14.6µM*
19 | u | x | 18.4µM*!
20 | u | 23.0% | 9.2µM*

# (cont.)
no. | SMILES | GRP78 ERSR act | Mito fusion yeast | Nrf2 ARE act
21 | O=C(CCc1ccccc1)NC(NC(=S)Nc1cccc(Cl)c1)C(Cl)(Cl)Cl (configuration not stated) | -1.0% | 5.5% | 0.5%
22 | O=C(Nc1ccccc1N1CCCCC1)c1ccc([N+](=O)[O-])o1 | -0.8% | 5.62µM* | u
23 | CCCC(=O)N1CCN(c2ccc(NC(=O)c3ccc([N+](=O)[O-])o3)cc2Cl)CC1 | -17.5% | -5.8% | u
24 | NS(=O)(=O)c1ccc(O)c(NC(=O)c2ccc([N+](=O)[O-])o2)c1 | 18.4% | 0.2% | 10µM*
25 | CCOC(=O)C1=C(C)N(CCCCCC(=O)O)C(=O)NC1c1ccc(Br)cc1 (configuration not stated) | -1.6% | 1.5% | 0.1%
26 | O=C(NCC1CC1)c1ccc(-n2ccnc2)c2ccoc12 | -3.1% | x | 3.8%
27 | CC(=O)Oc1ccccc1-c1nc(/C=C/c2ccccc2)no1 | -2.5% | -6.1% | 11.2µM*
28 | Brc1ccccc1-c1nnc(-c2cccnc2)o1 | -3.9% | 0.9% | 15.8µM*
29 | Brc1ccc(-c2nnc(-c3cccnc3)o2)cc1 | -0.2% | x | 8.5%
30 | CCN(C(=O)c1cccc(S(=O)(=O)N(C)C)c1)C12CC3CC(CC(C3)C1)C2 | -3.9% | 17.6% | -0.2%

no. | A549 viability | miR-21 reporter | Nrf2 block
21 | -1.2% | 16.2% | u
22 | -10.6% | x | u
23 | u | 19.7% | 16.4µM*
24 | -10.9% | 10.6% | 0.7%
25 | -4.1% | -4.3% | -8.0%
26 | x | x | x
27 | 0.2% | -41.3% | u
28 | -1.9% | -51.3% | u
29 | 1.4% | x | u
30 | -14.7% | 0.7% | 20.6µM*

# Additional results.
no. | SMILES | GRP78 ERSR act | Mito fusion yeast | Nrf2 ARE act
31 | CSc1ccc(CCNc2ncnc3onc(C)c23)cc1 | -1.1% | x | 2.0%
32 | CCCNc1ncnc2onc(C)c12 | -4.5% | 0.1% | -1.1%
33 | Cc1cc(C)cc(N(CCC#N)C(=O)CSC2=Nc3ccccc3C3CC=NN23)c1 (configuration not stated) | -2.3% | 11.2% | 6.0%
34 | O=C(CSC1=Nc2ccccc2C2CC=NN12)NCc1ccco1 (configuration not stated) | -3.4% | x | 0.631µM*
35 | CC1(C)CN(CCc2ccccc2)C(=O)[C@H]1CC(=O)Nc1ccccc1 | -0.8% | x | 0.2%
36 | Cc1cc(NC(=O)c2c(Cl)cnn2C)no1 | 0.1% | -1.0% | 0.2%
37 | CC(=O)c1c(-c2ccccc2)[nH]c2ccccc12 | -0.5% | -9.3% | 0.4%
38 | O=C(O)/C=C/C(=O)c1c(-c2ccccc2)[nH]c2ccccc12 | -5.8% | -1.4% | 10µM*
39 | CCCCCOC(=O)C1C(c2ccccc2)C(C(=O)O)C1c1ccccc1 (configuration not stated) | -2.0% | -13.0% | -0.5%
40 | CCN1CCN(c2cc(C)c3cc(NC(=O)c4cc(OC)c(OC)c(OC)c4)ccc3n2)CC1 | 3.1% | x | 22.4%
41 | CCN1CCN(c2cc(C)c3cc(NC(=O)c4ccc(OC)c(OC)c4)ccc3n2)CC1 | 1.2% | 1.1% | 5.6%
42 | Cc1cc(N2CCN(C)CC2)nc2ccc(NC(=O)c3ccc(C(C)(C)C)cc3)cc12 | -9.5% | x | -4.0%
43 | CCCCCNCc1ccc(Cl)cc1 | -7.0% | 5.3% | -0.4%

no. | A549 viability | miR-21 reporter | Nrf2 block
31 | 4.1% | -2.8% | 7.31µM*
32 | -1.2% | -0.8% | 0.0%
33 | u | -12.8% | 23.1µM*
34 | -20.5% | x | u
35 | x | x | x
36 | -0.5% | -2.9% | x
37 | -5.1% | 12.2% | u
38 | 1.6% | 9.3% | 0.8%
39 | -7.4% | -11.2% | -20.9%
40 | -17.1% | 2.5% | x
41 | 16.4µM*! | 10.1% | 16.4µM*!
42 | -11.0% | 6.56µM* | -7.2%[9.27 µM]
43 | 0.8% | 3.5% | -1.3%

# A draw from above in order of SMILES length, largest number first:
no. | SMILES | GRP78 ERSR act | Mito fusion yeast | Nrf2 ARE act
23 | CCCC(=O)N1CCN(c2ccc(NC(=O)c3ccc([N+](=O)[O-])o3)cc2Cl)CC1 | -17.5% | -5.8% | u
20 | O=C(CCc1ccccc1)NC(NC(=S)Nc1ccc(Br)cc1)C(Cl)(Cl)Cl (configuration not stated) | 7.0% | 1.2% | 7.6%
31 | CSc1ccc(CCNc2ncnc3onc(C)c23)cc1 | -1.1% | x | 2.0%
43 | CCCCCNCc1ccc(Cl)cc1 | -7.0% | 5.3% | -0.4%

no. | A549 viability | miR-21 reporter | Nrf2 block
23 | u | 19.7% | 16.4µM*
20 | u | 23.0% | 9.2µM*
31 | 4.1% | -2.8% | 7.31µM*
43 | 0.8% | 3.5% | -1.3%
